US20240207237A1, “METHOD OF SCREENING FOR DRUG COMBINATION FOR COLORECTAL CARCINOMA TREATMENT, DRUG COMBINATION AND USE THEREOF” (National Tsing Hua University, priority 2022, published 2024)

System: HCT116 cell lines
Test: IC50 and cell viability assay of clinical drugs (CCK-8)
Assay type: cell-based, human
Conditions: CCK-8, absorbance 450 nm, triplicate, mean ± SD, Resistance = drug does not affect cell viability
Procedure: All the mediums were purchased from […].
To determine suitable cell seeding number for each cell line, different number (300, 500, 1000, 3000) of cells/wells were seeded in a 96-well plate. A cell viability was determined using a real-time viability assay (RealTime-Glo™ Assay Reagent). Luminescence intensities were measured at different time points (4, 8, 16, 24, 36, 48, 60 and 72 hours) to evaluate a cell growth curve. To establish IC50 values of ten drugs on each cell line, gradient concentrations of each drug were prepared. 5-FU, Oxaliplatin, Gemcitabine, Irinotecan, Leucovorin, Regorafenib, Lenvatinib are small molecule drugs, which were prepared with final concentrations of 100, 50, 25, 10, 5, 1, 0.1, 0.01 and 0.001 μM; and Bevacizumab, Cetuximab, Panitumumab are macromolecular drugs, which were prepared with the final concentrations of 1, 0.5, 0.25, 0.1, 0.05, 0.01, 0.001, 0.0001 and 0.00001 μM. The cell viability was measured with Cell Counting Kit 8 (e.g., CCK-8 purchased from Dojindo molecular technologies, Japan), and cell viability assay was performed after 2 hours of incubation by measuring the absorbances at 450 nm. Relative cell numbers were determined as compared with the control cells. All experiments were performed in triplicate manner, and data were represented as expressed as mean±standard deviation (mean±SD).

Cetuximab [Cetuximab (C)]
IC50 (μM) ± SD: Resistance
